The assay has as its system intracellular pERK. The experiment in a line: Inhibitory effect on intracellular pERK, In-Cell Western, AGS cells. It is filed as cell-based. The note with it: read-out: Inhibitory effect on intracellular pERK, IC50, 3 h incubation.
Text: […]

The values that follow come from US20250034169A1, “NOVEL PYRIMIDOPYRIDINE COMPOUND, PHARMACEUTICAL COMPOSITION THEREOF, AND USE THEREOF” (SUNSHINE LAKE PHARMA CO., LTD., priority 2021, published 2025).

A word on the IC50: it is the concentration that gives 50% inhibition. As for `C#Cc1c(F)ccc2cc(O)cc(-c3nc(C#C)c4c(N5CC6CCC(C5)N6)nc(OCC56CCCN5CC(F)C6)nc4c3F)c12` (stereo not shown), the IC50 is 0.6 nM.
